The record followed here is paper PMC6610660 (Structure (London, England : 1993), 2019).

By UniProt entry, the sequences of proteins in these tests, tags left out. Where a name states a change or a piece, a line headed by the entry shows the natural chain unless it says otherwise.
UniProt Q9GZZ1: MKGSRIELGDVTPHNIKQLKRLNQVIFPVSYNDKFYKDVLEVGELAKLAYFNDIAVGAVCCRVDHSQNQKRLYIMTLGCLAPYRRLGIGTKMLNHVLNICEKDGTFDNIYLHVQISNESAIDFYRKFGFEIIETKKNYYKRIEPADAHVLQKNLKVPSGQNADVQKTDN

The target in the test is hNaa50 (Homo sapiens, UniProt Q9GZZ1). The conditions noted are these: 20 °C, pH 7.0, 200 mM NaCl, 1 mM DTT.

With `CC(=O)SCCNC(=O)CCNC(=O)[C@H](O)C(C)(C)COP(=O)(O)OP(=O)(O)OC[C@H]1O[C@@H](n2cnc3c(N)ncnc32)[C@H](O)[C@@H]1OP(=O)(O)O` [acetyl-CoA], the ITC result is “Using ITC, we were able to detect acetyl-CoA binding to hNaa50”.
